These results are taken from patent publication US6506754B1, “Non-covalent thrombin inhibitors” (dated 2003).

The chains behind the UniProt entries cited, without tags or fusion partners. Residues count along the entry.
UniProt P00760, 24-246 limits assumed: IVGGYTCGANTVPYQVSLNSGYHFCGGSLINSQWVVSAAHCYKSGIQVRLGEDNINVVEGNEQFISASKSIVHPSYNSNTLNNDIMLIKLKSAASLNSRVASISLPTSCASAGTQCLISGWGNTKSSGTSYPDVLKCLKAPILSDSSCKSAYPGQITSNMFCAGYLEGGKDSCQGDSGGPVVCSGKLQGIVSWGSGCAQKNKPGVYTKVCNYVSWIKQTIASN
UniProt P00742, 41-179 limits assumed: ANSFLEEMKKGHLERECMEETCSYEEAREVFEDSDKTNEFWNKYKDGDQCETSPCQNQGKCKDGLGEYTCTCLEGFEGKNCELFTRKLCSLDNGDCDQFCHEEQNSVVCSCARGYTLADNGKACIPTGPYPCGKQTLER
UniProt P00742, 235-488 limits assumed: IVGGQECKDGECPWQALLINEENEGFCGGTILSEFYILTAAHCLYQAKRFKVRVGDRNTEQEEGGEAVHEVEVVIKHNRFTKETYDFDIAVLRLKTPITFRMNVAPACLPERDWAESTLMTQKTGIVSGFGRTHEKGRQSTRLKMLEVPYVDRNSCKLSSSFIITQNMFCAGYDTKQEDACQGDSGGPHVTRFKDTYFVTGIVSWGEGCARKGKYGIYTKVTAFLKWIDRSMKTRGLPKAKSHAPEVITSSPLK

The target of assay [1] is bovine pancreatic trypsin (Bos taurus, UniProt P00760). Put plainly: Trypsin chromogenic substrate assay. The note with it: read-out: Trypsin IC50.
The target in the next assay is Factor Xa (Homo sapiens, UniProt P00742). Put plainly: Factor Xa chromogenic substrate assay. Conditions: read-out: fXa IC50.
A further assay deals with human α-thrombin (Homo sapiens, UniProt P00734). Put plainly: Thrombin (fIIa) chromogenic substrate assay. The note with it: for IC50: read-out: fIIa IC 50 (0 min), 0 min; for Ki: read-out: fIIa Ki.

Turning to `Cc1ccc(NS(=O)(=O)Cc2ccccc2)c(=O)n1CC(=O)NCC1CN=C(N)NC1` (stereo not drawn), the IC50 in assay [1] is greater than 100000 nM; on Factor Xa it was greater than 100000 nM; on human α-thrombin it was less than 100 nM. The Ki at human α-thrombin is less than 100 nM.

Take `Cc1cnc(NCCc2ccccc2)c(=O)n1CC(=O)NCC1CN=C(N)NC1C` (stereo not drawn): the IC50 in assay [1] was greater than 100000 nM; at Factor Xa it was greater than 100000 nM; on human α-thrombin, less than 100 nM. Moreover, the Ki at human α-thrombin is less than 100 nM.

On to `Cc1nc(N)ncc1CNC(=O)Cn1c(C)ccc(NS(=O)(=O)Cc2ccccc2)c1=O`, for which the IC50 in assay [1] is greater than 100000 nM; on Factor Xa it was greater than 100000 nM; at human α-thrombin, 300 to 2500 nM. The Ki on human α-thrombin is less than 100 nM.

Regarding `Cc1nc(N)nc(C)c1CNC(=O)Cn1c(C)ccc(NS(=O)(=O)Cc2ccccc2)c1=O`, the IC50 was greater than 100000 nM in assay [1], greater than 100000 nM at Factor Xa and 300 to 2500 nM at human α-thrombin. For the same compound, the Ki on human α-thrombin is 100 to 399 nM.

Consider `Cc1cnc(NCCc2ccccc2)c(=O)n1CC(=O)NCC1CN=C(N)NC1` (stereo not drawn), for which the IC50 in assay [1] was greater than 100000 nM; on Factor Xa, greater than 100000 nM; on human α-thrombin, less than 100 nM. The Ki on human α-thrombin is less than 100 nM.

As for `Cc1nc(N)ncc1CNC(=O)Cn1c(C)ccc(NCCc2ccccc2)c1=O`, the IC50 in assay [1] was greater than 100000 nM; at Factor Xa, greater than 100000 nM; on human α-thrombin, 300 to 2500 nM. For the same compound, at human α-thrombin, the Ki is 100 to 399 nM.

Turning to `Cc1ccc(NS(=O)(=O)Cc2ccccc2)c(=O)n1CC(=O)NCC1CN=C(N)NC1C` (stereo not drawn), the IC50 in assay [1] is greater than 100000 nM; at Factor Xa, greater than 100000 nM; at human α-thrombin it was less than 100 nM. Moreover, the Ki at human α-thrombin was less than 100 nM.

Turning to `Cc1ccc(NS(=O)(=O)Cc2ccccc2)c(=O)n1CC(=O)NCc1cnc(N)cn1`, the IC50 in assay [1] was greater than 2500 nM; at Factor Xa, greater than 2500 nM; on human α-thrombin, 300 to 2500 nM. Besides, the Ki on human α-thrombin fell in the range of 100 to 399 nM.

With `Cc1nc(N)ncc1CNC(=O)Cn1c(C)ccc(NS(=O)(=O)c2ccc3c(c2)OCCO3)c1=O`, the IC50 is greater than 100000 nM in assay [1], greater than 100000 nM at Factor Xa and 300 to 2500 nM at human α-thrombin. Also, the Ki on human α-thrombin is less than 100 nM.
